One may read the inhibition as the change of the read-out against control, counted positive when it falls.

Only a part is listed here, and it is no random draw. Activity calls are given as the source filed them.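 The calls were made as follows: active = inhibition above the plate cutoff, the mean of all test compounds on that plate plus 3 SD (cut at about 35% in these data); inactive = the rest.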

This assay in a line: small molecules binding CAG repeat RNA – biochemical, fluorescence, primary screen (AID 651821).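 Also: 0% = DMSO alone and 100% = 100 µM mitoxantrone as full dye displacement; higher means more dye released from RNA so lower well fluorescence.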 The settings on record: r(CAG) RNA repeat, TO-PRO-1 dye displacement fluorescence; at 3 µM; active compounds read high.
Turning to `COC(=O)c1cc2c(s1)N=C(c1ccccc1)N(C)P2(=O)N1CCOCC1` (stereo not given), the inhibition was inactive: 2.12%.

`Cc1ccc(OP(=O)(Nc2ccccn2)Oc2ccc(C)cc2)cc1`: the inhibition was inactive: -7.94%. With `CC(=O)NC(SC(=S)N(CC(C)C)CC(C)C)C(Cl)(Cl)Cl` (stereo not given) the figure was inactive: 0.2%. With `Cc1ccccc1OP(=O)(Nc1ccccn1)Oc1ccccc1C` the figure was inactive: -8.49%; with `CC(NC(=O)COC(=O)C(O)(c1ccccc1)c1ccccc1)c1ccccc1` (stereo not given), inactive: -9.92%. In the case of `CN(C)C(=O)Oc1noc2ccccc12` it was inactive: -0.59%; in that of `O=c1c2cc([N+](=O)[O-])ccc2[nH]c2c([N+](=O)[O-])cc([N+](=O)[O-])cc12`, inactive: 27.6%. Regarding `c1ccc(-c2nn[nH]n2)c(-c2nn[nH]n2)c1`, the inhibition was inactive: -2.39%. `Cc1ccc(NP(=O)(Oc2cccc(C)c2)Oc2cccc(C)c2)nc1`: the inhibition is inactive: -1.49%. In the case of `O=C(NC1CCS(=O)(=O)C1)NP(=S)(Oc1ccccc1)Oc1ccccc1` (stereo not given) it was inactive: -1.58%; in that of `CCNC(=S)/N=C(\N)N[N+](=O)[O-]`, inactive: 2.64%; in that of `O=P1(N(CCCl)CCCl)OCCC2CCCCN21` (stereo not given), inactive: -0.36%. In the case of `O=[As](O)(c1ccccc1)c1ccc(O)cc1` it was inactive: 1.59%; in that of `O=[N+]([O-])c1ncn(CCn2cnc([N+](=O)[O-])n2)n1`, inactive: 0.24%. With `CC(=O)NC(SC(=S)N(C)C)C(Cl)(Cl)Cl` (stereo not given) the figure was inactive: -1.42%; with `O=C(OC1CN2CCC1CC2)c1cccc(Cl)c1` (stereo not given), inactive: -0.14%; with `C/C(N)=N\P(=O)(OCc1ccccc1)OCc1ccccc1`, inactive: 1.99%.

On to `Nc1ccc([As](=O)(O)c2ccc([N+](=O)[O-])cc2)cc1`, for which the inhibition is inactive: 1.07%. In the case of `C(Cc1nn[nH]n1)Cc1nn[nH]n1` it was inactive: 2.1%. With `CN(C)C1(CNC(=O)c2ccc(Cl)c(S(N)(=O)=O)c2)CCCCC1` the figure was inactive: 4.24%; with `O=P(Nc1ccccn1)(c1ccc(Br)cc1)c1ccc(Br)cc1`, inactive: -5.44%; with `Nc1ccc(CCCCOc2ccccc2)cc1`, inactive: 2.06%. In the case of `COc1ccc(N)c([N+](=O)[O-])c1[N+](=O)[O-]` it was inactive: 8.55%; in that of `O=P(Nc1nc2ccccc2s1)(c1ccccc1)c1ccccc1`, inactive: -2.14%; in that of `C[C@H]1OP(=O)(Oc2ccccc2)[C@H](O)[C@H](O)[C@H]1N=[N+]=[N-]` (stereo not given in full), inactive: -2.75%. Regarding `O=P(Nc1nccs1)(c1ccccc1)c1ccccc1`, the inhibition is inactive: 1.15%. With `CC(C)C(=O)NC(Sc1ccccc1)C(Cl)(Cl)Cl` (stereo not given) the figure was inactive: -3.55%; with `c1nnnn1CCn1cnnn1`, inactive: 0.38%; with `COc1ccccc1CNC(=O)COC(=O)C(O)(c1ccccc1)c1ccccc1`, inactive: -4.01%. In the case of `CC(C)/C=N\N=C(\N)N[N+](=O)[O-]` it was inactive: -0.8%. Regarding `CC1(CBr)Cn2c(nc3ccccc3c2=O)S1` (stereo not given), the inhibition was inactive: 0.61%. With `CCC1=CC2Cc3nc4ccc(Cl)cc4c(N)c3C(C1)C2` (stereo not given) the figure was inactive: 12.7%.

With `O=P1(Nc2ccccn2)COc2ccccc2OC1`, the inhibition was inactive: 2.11%. As to `CCOP(=O)(NC(=NC(C)c1ccccc1)NC(C)c1ccccc1)OCC` (stereo not given), the inhibition was inactive: -3.2%. With `CN(CCCl)Cc1cc(Cl)c(NC2=NCCN2)c(Cl)c1` the figure was inactive: 2.59%; with `CCOP(=O)(Nc1ccc(C)cn1)OCC`, inactive: 3.42%; with `Clc1n[nH]nc1-c1nn[nH][15n]1`, inactive: 4.72%. For `O=P1(N(CCCl)CCCl)NCCC(C(F)(F)F)O1` (stereo not given), the inhibition was inactive: 2.61%. In the case of `CC(C)(C)C(=O)NC(Sc1ncccn1)C(Cl)(Cl)Cl` (stereo not given) it was inactive: -5.48%. `Cc1ccc(S(=O)(=O)N(CCCN)CCCc2c(C)nc(N)[nH]c2=O)cc1`: the inhibition was inactive: 9.42%. With `O=P1(Nc2ncccn2)COc2ccccc2OC1` the figure was inactive: -0.34%.

Turning to `Nc1cccc([As](=O)(O)c2ccccc2)c1`, the inhibition is inactive: 1.91%.

As to `NS(=O)(=O)c1cccc(NC(=O)COC(=O)C(O)(c2ccccc2)c2ccccc2)c1`, the inhibition is inactive: 5.37%.

Consider `O=P1(Nc2ccc(Br)cn2)COc2ccccc2OC1`, for which the inhibition is inactive: -0.2%.

For `O=[As](O)(c1cccs1)c1cccs1`, the inhibition is inactive: -0.2%.

For the compound `Cc1ccc(OCC(=O)OC2CN3CCC2CC3)cc1` (stereo not given), the inhibition is inactive: -0.74%. In the case of `Cc1nn(-c2ccccc2)c2c1P(=O)(N1CCOCC1)N(C)C(c1ccccc1)=N2` (stereo not given) it was inactive: -3.2%. In the case of `Cc1ccc(C(=O)OC2CN3CCC2CC3)cc1` (stereo not given) it was inactive: -0.76%; in that of `CC1CCC(C(C)C)C(OP(=O)(Nc2ccccn2)c2ccccc2)C1` (stereo not given), inactive: -11.2%. Take `CN(C)C1(CNC(=O)c2ccc(S(C)(=O)=O)cc2)CCCCC1`: the inhibition is inactive: -4.22%. As to `O=C(/C=C/c1ccccc1)OC1CN2CCC1CC2` (stereo not given), the inhibition is inactive: 0.37%.

For the compound `CCCC1OP(=O)(Nc2ccccc2)OCC1CC` (stereo not given), the inhibition was inactive: -0.29%. With `NC(=O)Nc1ccc([As](=O)(O)O)cc1` the figure was inactive: 0.53%; with `N#CCCN(C(=O)COC(=O)C(O)(c1ccccc1)c1ccccc1)c1ccc(F)cc1`, inactive: -8.99%; with `CN(C(=O)Cc1ccccc1)[C@@H]1CC[C@]2(CCCO2)C[C@H]1N1CCCC1`, inactive: 2.18%. With `CCOP1(=S)c2c(C)nn(CCC#N)c2N=C(c2ccc(F)cc2)N1C` (stereo not given) the figure was inactive: -6.07%; with `CN(C)C(=O)c1cc([N+](=O)[O-])cc2c1-c1c(cc([N+](=O)[O-])cc1[N+](=O)[O-])C2=O`, inactive: 0.76%.

In the case of `O=[N+]([O-])c1ccc2c(c1)nnn2O`, the inhibition is inactive: 1.63%. In the case of `CN(C(=O)Cc1ccc(Cl)c(Cl)c1)[C@H]1CC[C@@]2(CCCO2)C[C@@H]1N1CCCC1` it was inactive: -2.15%. In the case of `CCOP1(=S)c2c(C)nn(CCC#N)c2N=C(c2ccccc2F)N1C` (stereo not given) it was inactive: -7.91%.

As to `O=P(Nc1nccs1)(Oc1ccccc1)Oc1ccccc1`, the inhibition is inactive: 2.4%. With `O=C(O)COc1ccc([As](=O)(O)O)cc1[N+](=O)[O-]`, the inhibition was inactive: -0.12%. With `Nc1ccccc1[As](=O)(O)c1ccccc1`, the inhibition is inactive: -0.68%. With `Nc1cccc2c([As](=O)(O)O)cccc12`, the inhibition was inactive: -108%.

With `Cc1ccc(NCCc2c([N+](=O)[O-])cc([N+](=O)[O-])cc2[N+](=O)[O-])cc1`, the inhibition is inactive: 17.9%.
